## Binding of CDR-mutated scFvs to a peptide of the spike HR2 region

The target is the same throughout: PDVDLGDISGINAS, from the HR2 region of SARS-CoV-2 spike.

Parent: Ab-14, a human scFv built as VH, three GGGGS repeats, VL. Only the CDRs of the light chain vary.
VH: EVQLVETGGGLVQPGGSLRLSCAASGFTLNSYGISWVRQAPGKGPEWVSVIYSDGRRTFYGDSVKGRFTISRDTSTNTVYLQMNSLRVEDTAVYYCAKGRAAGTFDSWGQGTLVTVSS
VL: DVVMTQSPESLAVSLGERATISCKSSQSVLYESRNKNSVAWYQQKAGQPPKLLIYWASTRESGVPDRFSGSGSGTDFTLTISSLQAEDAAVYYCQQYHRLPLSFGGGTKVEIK

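The starting antibody came from a phage panning campaign against this peptide. Designed CDR sequences, proposed from the first random library and measured here. Several design methods are mixed in this list. AlphaSeq pools MATa yeast showing the antibodies with MATalpha yeast showing the peptide. After mating in shaken culture at 30 °C for 16 h, diploids were selected and their barcode pairs sequenced. Each replicate has its own calibration line, from reference interactions of the BCL2 family. Mating was done six times.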

Variants are written as CDR1, CDR2 and CDR3 of the light chain (limits as in the source). Parent: KSSQSVLYESRNKNSVA, WASTRES, QQYHRLPLS. Variants here have more than six changes. Each Kd is an estimate from the mating assay, the geometric mean of the replicates in which the pair was seen; lower is stronger. The range of this assay differs from that of the first round, and the authors advise against merging the two.

- YMSMYLDMQDSIQCGVA | DATVRNA | QQYQRLPLS -> 99 nM (6 of 6 replicates; controls 0 of 18)
- NIQDNLGGLLSQKNSVA | STEEKSD | QSYHRLPLS -> 1.1 nM (6 of 6 replicates; controls 0 of 18)
- HISMMVGTKGYNKASVA | NAETRED | QQYHRLPLS -> 1.5 nM (6 of 6 replicates; controls 0 of 18)
- MISQLMNMGTFAINSVA | QASIRNA | QQYDRLPLA -> 130 nM (6 of 6 replicates; controls 0 of 18)
- KISMVMENQLKNRNSVA | ELVTRMA | QQYNRLPLS -> 3.3 nM (6 of 6 replicates; controls 0 of 18)
- KVSQSVLGLQRAQNSVA | EASTRES | QQYHRLPLS -> 1.4 nM (6 of 6 replicates; controls 0 of 18)
- QLLTGVTENAKNGKAIA | NNEEKAQ | QQYFRLPFS -> 850 pM (6 of 6 replicates; controls 3 of 18)
- VMFMGLYWNNDETYAIA | DVTMKEK | QQYHRLPLM -> 80 nM (1 of 6 replicates; controls 0 of 18)
- KLQQSCLYESRNPNSVA | NASYRYS | QQYHRLPLS -> 2.0 nM (6 of 6 replicates; controls 1 of 18)
- NMVEDEAGDQKNSGNIA | SVDQRED | QQYQKLPLM -> 15 pM (6 of 6 replicates; controls 0 of 18)
- NITQQGDAMGDQRNNVA | NVETLEH | QQYAHLPLL -> 64 nM (6 of 6 replicates; controls 0 of 18)
- MISQLYNMGSFAINSVA | QASTRNE | QQYDRLPLM -> 35 nM (6 of 6 replicates; controls 1 of 18)
- KSLQMQEYESRNKNSVA | HASTRED | QQYHCLPLS -> 1.0 nM (6 of 6 replicates; controls 0 of 18)
- MMSSLMGYESRNIQNVA | QTSTREE | QQYDRLPLI -> 2.0 nM (6 of 6 replicates; controls 0 of 18)
- HIGLATMSQETVRNSVA | NNSTRES | QQYDRLPLS -> 17 nM (6 of 6 replicates; controls 0 of 18)
- KISMVAGHMSMSKNNVA | EMVTREN | QQYDRLPLS -> 26 nM (6 of 6 replicates; controls 0 of 18)
- KLAQYVGGESRNKSSLA | DNSTRES | QQYERLPLS -> 1.2 µM (6 of 6 replicates; controls 1 of 18)
- KLYQSVMLESRNVNSVA | SASQREE | QQYHRLPLS -> 480 pM (6 of 6 replicates; controls 1 of 18)
- MISQVLNMLTREGNNVA | DLQERED | QQYFRLPLS -> 16 nM (6 of 6 replicates; controls 0 of 18)
- KLLQSVQYGSRALNSVA | QMSTRED | QQYNRLPLS -> 1.9 nM (6 of 6 replicates; controls 0 of 18)
- KVFMELAEDKASTRNIA | DASVHCA | QQYQRLPLG -> 1.5 nM (6 of 6 replicates; controls 0 of 18)
- KISMGWEMNSRQNHNMA | EADLKCS | QQYNRLPLF -> 4.1 nM (6 of 6 replicates; controls 0 of 18)
- SMSNLQIVPDVWKNSIA | DAEHVEY | QQYSRLPLT -> 4.4 nM (6 of 6 replicates; controls 1 of 18)
- KLKYQADQYGMQWNNVA | HADIRAP | QQYSKLPLN -> 2.0 nM (6 of 6 replicates; controls 3 of 18)
- HLTEQNFDGERRAYNIA | AGVKHSY | QQYHRLPLM -> 38 nM (6 of 6 replicates; controls 1 of 18)
- SLYEAMQTGGLHTSNIA | DANQQMR | QHYMRLPLA -> 1.5 nM (6 of 6 replicates; controls 0 of 18)
- KAMWSWLYWSRNQNSVA | NASQREH | QQYHRLPLS -> 1.5 nM (6 of 6 replicates; controls 0 of 18)
- MIAQGLRGVGRNKNSVA | NAQTREQ | QHYHRLPLS -> 10 nM (6 of 6 replicates; controls 1 of 18)
- MLGMTVMQGMYSRNSVA | QEETRAD | QQYHHLPLS -> 9.6 nM (6 of 6 replicates; controls 1 of 18)
- HISQMWFLESRNKNNVA | EESTRED | QSYFRLPLS -> 2.6 nM (6 of 6 replicates; controls 1 of 18)
- MLGDTTMQGMYSRNSVA | QESTRAE | QQYHHLPLS -> 3.6 nM (6 of 6 replicates; controls 2 of 18)
- HISYSMQHLSKNKNNVA | NQQTRES | QQYHRLPLS -> 1.4 nM (6 of 6 replicates; controls 1 of 18)
- KLLDYEYGTWAMNSAIA | NASLESD | QQYDRLPLT -> 53 nM (6 of 6 replicates; controls 0 of 18)
- KLTMMYQHTSRNKNNIA | ERSTREE | QQYNHLPLS -> 11 nM (5 of 6 replicates; controls 0 of 18)
- FMSQSVLMEGRNDNSVA | SASTRED | QQYHRLPLS -> 1.3 nM (6 of 6 replicates; controls 0 of 18)
- KISGMMQKESKNKNSVA | EMVNRES | QQYDRLPLS -> 35 nM (6 of 6 replicates; controls 2 of 18)
- MVNGETVHQANRDNNIA | EAQLVAA | QDYHRLPFI -> 24 nM (6 of 6 replicates; controls 0 of 18)
- KMPQSWWYESRMKWSVA | NASERES | QQYHRLPLS -> 1.0 nM (6 of 6 replicates; controls 1 of 18)
- MISQLYNMGQFAINSVA | QAQTRNE | QQYDRLPLM -> 23 nM (4 of 6 replicates; controls 0 of 18)
- KLSQSVMFMSGVYNSVA | QMSTRAE | QQYNRLPLI -> 1.8 nM (6 of 6 replicates; controls 0 of 18)
- TISQVMNTLSRHGNNVA | DLAERED | QQYFRLPLS -> 30 nM (5 of 6 replicates; controls 0 of 18)
- SLMQVTGYESNNKNSIA | DLRTRES | QQYHRLPLS -> 3.7 nM (6 of 6 replicates; controls 1 of 18)
- KFMMSGEYQMHEQNNIA | QGNIKFV | QQYFRLPIS -> 6.4 nM (6 of 6 replicates; controls 2 of 18)
- KSEQSVLFESRNHNSVA | GAGTREW | QQYARLPLS -> 1.5 nM (6 of 6 replicates; controls 0 of 18)
- NFPQEQMYESHFKNNVA | QTSTREP | QQYDHLPLS -> 1.2 nM (6 of 6 replicates; controls 1 of 18)
- KISASVNYEMVNGQSVA | QMSTRES | QQYDRLPLS -> 7.8 nM (6 of 6 replicates; controls 0 of 18)

The 3 strongest on average among those seen in every replicate, once more:

CDR-L1,CDR-L2,CDR-L3,apparent Kd,replicates with signal,control signals
NMVEDEAGDQKNSGNIA,SVDQRED,QQYQKLPLM,15 pM,6/6,0/18
KLYQSVMLESRNVNSVA,SASQREE,QQYHRLPLS,480 pM,6/6,1/18
QLLTGVTENAKNGKAIA,NNEEKAQ,QQYFRLPFS,850 pM,6/6,3/18

Of ten entries with the parent sequence, four were seen in most replicates (averages 2.2 nM to 240 nM), three in one and three in none, so single entries are noisy. Background: pairings of all light chain designs with three empty control strains gave a value in 4% of cases (median 430 nM, 5th percentile 38 nM). Values in that range, when seen in few replicates, are hard to tell from nonspecific mating. Also given: how often the same scFv was detected with the empty control strains. In the paper, a design with two or fewer of six values counts as a poor binder.

Source: Li et al. 2023 (doi:10.1038/s41467-023-39022-2), MIT Lincoln Laboratory and A-Alpha Bio; data file from the FLAb repository.